# Earlier results, collected in article PMC4869338, “Pre-clinical evaluation of CYP 2D6 dependent drug–drug interactions between primaquine and SSRI/SNRI antidepressants” (Malaria Journal, 2016).
# Settings: in vivo; cited from earlier work
row,Substance,primaquine exposure on co-administration
1,dihydroartemisinin-piperaquine,significantly higher primaquine exposure
2,pyronaridine-artesunate,significantly higher primaquine exposure
